Sequences of proteins named here, by UniProt entry; tags and fusion partners are left off.
UniProt P30411, whole entry: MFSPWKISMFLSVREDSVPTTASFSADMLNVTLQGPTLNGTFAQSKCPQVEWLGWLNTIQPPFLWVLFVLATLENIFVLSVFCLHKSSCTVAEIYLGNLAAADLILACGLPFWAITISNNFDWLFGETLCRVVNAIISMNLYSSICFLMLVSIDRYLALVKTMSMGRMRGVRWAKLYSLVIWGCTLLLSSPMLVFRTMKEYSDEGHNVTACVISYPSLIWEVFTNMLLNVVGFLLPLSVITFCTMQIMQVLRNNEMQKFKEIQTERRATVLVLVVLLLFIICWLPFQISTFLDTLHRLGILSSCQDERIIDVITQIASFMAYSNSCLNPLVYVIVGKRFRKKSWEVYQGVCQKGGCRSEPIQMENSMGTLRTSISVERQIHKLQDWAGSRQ

In publication PMC4253050 (Cellular signalling, 2014):

Molecular target: kB2R (Homo sapiens, UniProt P30411)
Experiment: [3H]BK binding and endocytosis assay, cell surface kB2R, HEK293 cells
Details: HEK cells stably expressing kB1R and kB2R; 1 nM [3H]BK 90 min on ice; n=3

inhibition of [3H]-BK binding by kB2R antagonist: almost completely inhibited
Substance: HOE140
